Our source for the antitumour activity values is patent US20130012465A1 (Boehringer Ingelheim International GmbH, priority 2009, published 2013).

The test concerns triple negative mBC. Conditions: patients with advanced triple-negative breast cancer. As for the experimental part:
A Phase II, open-label, multicenter trial was conducted in Belgium and Germany. Two Cohorts of patients were included: • Cohort A: Patients with triple negative mBC • Cohort B: Patients with HER2-negative, HR-positive mBC. • Primary endpoint for Cohort A and B initially was objective response as determined by response evaluation criteria in solid tumours (RECIST) criteria, as described by P. Therasse et al., J Natl Cancer Inst 2000, 92, 205-216. For Cohort A this was modified by amendment to clinical benefit (CB), i.e. complete response (CR), partial response (PR) and stable disease (SD) for at least 4 courses. • Secondary endpoints were time to progression, progression-free survival (PFS), overall survival (OS), time to objective response, duration of objective response, safety and pharmacokintics (PK). Clinical benefit (CR, PR, SD) was a secondary endpoint for Cohort B. • A total of 80 patients was planned to be enrolled into the trial: 80, i.e. 40 patients per cohort. […] Additional predose plasma samples were taken on Day 15 of Course 1, on Day 1 of Course 2 and on Day 1 of all subsequent courses (Course 3 onwards). […]
• HR-negative patients: estrogen receptor (ER) status and progesterone receptor (PgR) status must be assessed by immunohistochemistry (IHC) and Allred (Harvey J M et al., J Clin Oncol 1999, 17(5), 1474-1481).

As to `CN(C)C/C=C/C(=O)Nc1cc2c(Nc3ccc(F)c(Cl)c3)ncnc2cc1O[C@H]1CCOC1` [BIBW 2992, 4-[(3-chloro-4-fluorophenyl)amino]-6-{[4-(N,N-dimethylamino)-1-oxo-2-buten-1-yl]amino}-7-((S)-tetrahydrofuran-3-yloxy)-quinazo line], the antitumour activity entry was “showed antitumour activity in some patients”.
